Screening data (PubChem BioAssay)
Rango-impB inh: qHTS Assay for Inhibitors of Rango (Ran-regulated importin-beta cargo) - Importin beta complex formation; hit rate 0.031% among 340,000; AID 540263, 2011; Potency, µM (series often up to 92.2 µM); Rango CFP/YFP FRET sensor + importin beta, 45 min; Importin subunit beta-1 (Homo sapiens), Q14974; note: nearly all actives have a fitted effect of over 15% in size
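FRET biosensor (snurportin 1 IBB flanked by EYFP and cerulean), 50 nM, with compound 5 min, then 0.125 microM importin beta in PBS, 1 mM DTT, 0.02% Tween-20, 0.1% BSA. CFP/YFP ratio read after 45 min at room temperature; pre-read flags interference.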
Rango dissoc inh: qHTS Assay for Inhibitors of RanGTP induced Rango (Ran-regulated importin-beta cargo) - Importin beta complex dissociation. Snurportin-1 (Homo sapiens) + GTP-binding nuclear protein Ran (Homo sapiens) + Importin …. Biochemical FRET Rango-importin beta, RanGTP-induced dissociation. Potency, µM (top dose mostly 46.1 µM). hit rate 0.071% among 340,000. AID 540253, 2011; note: nearly all actives have a fitted effect of over 45% in size
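FRET read at 45 min, room temperature: inhibitors block the CFP/YFP signal rise when RanGTP (0.6 uM Ran, 2 mM GTP, 0.2 uM RCC1) frees Rango (0.1 uM) from importin beta (0.25 uM). Pre-read after 5 min compound exposure flags interference.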
gsp agonist: qHTS for Agonist of gsp, the Etiologic Mutation Responsible for Fibrous Dysplasia/McCune-Albright Syndrome: qHTS; gsp mutant cells, cAMP HTRF, 30 min; Potency, µM (top dose mostly 76.9 µM), most hits filed as activators; hit rate 0.13% among 340,000; active = well fitted activation curve with a large enough effect; inconclusive = small, poorly fitted or top-dose-only effect, or another doubt; inactive = no such curve, though single readings can be large or run the other way; cell line not stated here;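 note: phosphodiesterase inhibitor Ro 20-1724 added with compounds to block cAMP breakdown; nearly all actives have a fitted effect of over 60% in size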
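Cells stably selected in G418 were plated at 2000/well, grown 16-24 hr, then given compounds in DMSO with the PDE inhibitor […] (300 uM solution added) for 30 min at 37C; cAMP was read by HTRF.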
gsp antagonist: qHTS for Antagonists of gsp, the Etiologic Mutation Responsible for Fibrous Dysplasia/McCune-Albright Syndrome: qHTS; gsp-mutant cells, cAMP HTRF, 30 min; Potency, µM (titrated, usually from 76.9 µM), most hits filed as inhibitors; hit rate 0.4% among 340,000; AID 624288, 2012; calls by dose curve; cell line not stated here;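 note: intracellular cAMP measured with PDE inhibitor Ro 20-1724 present during compound exposure; nearly all actives have a fitted effect of over 65% in size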
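Measurement of cellular cAMP by homogeneous time-resolved fluorescence following a 30 min compound exposure at 37C. The PDE inhibitor […] was present throughout; the assay buffer was DPBS with 0.05% BSA and 0.005% Tween 20.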
S-ASM inh: Inhibitors of Secretory Acid Sphingomyelinase (S-ASM): qHTS; Sphingomyelin phosphodiesterase (Homo sapiens), P17405; placental ASM, HMU-PC fluorogenic substrate, 60 min; Potency, µM (highest dose often 57.5 µM), hits mostly inhibitors; hit rate 0.006% among 340,000; AID 504937, 2011; active = well fitted inhibition curve with a large enough effect; inconclusive = small, poorly fitted or top-dose-only effect; inactive = no such curve, though single readings can be large or run the other way
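Steps: dispense placental human ASM, pin compound, wait 10 min at room temperature, add HMU-PC0 substrate at 9 uM final, incubate 60 min at 37 °C, add stop solution raising pH to 10, read fluorescence.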
Numbers stand for hits; [ ] = another dose, or the depositor's remark. In the library only some 0.67% were active in any assay of this set; here they are far more common. Unless noted, calls come from the whole dose curve.

Chains of the proteins cited; added tags and fusions are not shown. Residues count along the entry.
Importin subunit beta-1 (Homo sapiens), Q14974, UniProt Q14974, whole entry, looked up: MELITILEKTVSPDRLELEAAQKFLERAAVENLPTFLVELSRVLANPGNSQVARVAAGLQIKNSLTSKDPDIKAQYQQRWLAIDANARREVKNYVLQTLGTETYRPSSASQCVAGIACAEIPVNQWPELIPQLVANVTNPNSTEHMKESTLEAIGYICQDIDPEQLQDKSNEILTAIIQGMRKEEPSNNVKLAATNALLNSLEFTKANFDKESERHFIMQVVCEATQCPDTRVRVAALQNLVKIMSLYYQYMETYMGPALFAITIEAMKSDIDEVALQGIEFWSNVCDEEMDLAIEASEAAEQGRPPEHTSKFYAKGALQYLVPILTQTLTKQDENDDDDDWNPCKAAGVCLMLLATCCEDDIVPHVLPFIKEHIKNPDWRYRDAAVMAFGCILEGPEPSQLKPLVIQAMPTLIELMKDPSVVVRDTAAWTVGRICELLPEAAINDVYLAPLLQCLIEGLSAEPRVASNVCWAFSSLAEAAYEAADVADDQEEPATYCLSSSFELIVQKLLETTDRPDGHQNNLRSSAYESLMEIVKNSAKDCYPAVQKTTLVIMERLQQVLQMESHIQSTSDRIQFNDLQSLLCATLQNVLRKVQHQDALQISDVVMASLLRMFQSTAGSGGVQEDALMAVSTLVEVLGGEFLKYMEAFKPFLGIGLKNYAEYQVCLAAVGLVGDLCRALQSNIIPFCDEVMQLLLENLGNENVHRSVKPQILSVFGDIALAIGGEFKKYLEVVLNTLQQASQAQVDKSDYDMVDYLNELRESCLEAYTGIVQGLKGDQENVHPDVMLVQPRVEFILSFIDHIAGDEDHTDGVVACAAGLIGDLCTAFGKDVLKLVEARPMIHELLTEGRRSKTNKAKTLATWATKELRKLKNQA
Sphingomyelin phosphodiesterase (Homo sapiens), P17405, UniProt P17405, 47-631 limits assumed: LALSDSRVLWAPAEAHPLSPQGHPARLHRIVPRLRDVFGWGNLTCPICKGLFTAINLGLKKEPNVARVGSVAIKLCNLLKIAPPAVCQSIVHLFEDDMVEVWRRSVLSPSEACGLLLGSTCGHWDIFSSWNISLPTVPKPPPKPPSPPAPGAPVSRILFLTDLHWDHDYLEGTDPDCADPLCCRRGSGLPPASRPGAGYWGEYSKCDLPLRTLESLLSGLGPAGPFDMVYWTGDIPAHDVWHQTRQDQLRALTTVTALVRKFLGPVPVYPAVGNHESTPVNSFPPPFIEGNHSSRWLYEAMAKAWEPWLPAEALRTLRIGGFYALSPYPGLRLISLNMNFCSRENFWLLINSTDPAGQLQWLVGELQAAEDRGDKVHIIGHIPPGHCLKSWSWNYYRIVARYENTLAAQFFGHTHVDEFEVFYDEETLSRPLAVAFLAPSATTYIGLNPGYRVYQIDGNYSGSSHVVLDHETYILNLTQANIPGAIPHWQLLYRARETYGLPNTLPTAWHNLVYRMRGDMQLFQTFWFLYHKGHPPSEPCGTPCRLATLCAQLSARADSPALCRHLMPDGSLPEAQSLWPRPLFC

Screening N#Cc1c(Cl)nc(Cl)c2c1CCN(Cc1ccccc1)C2 returned Rango-impB inh inconclusive, Rango dissoc inh 5.2µM[inhibitor], gsp agonist inactive, gsp antagonist inactive and S-ASM inh inactive.
`C[C@H]1CNC(=O)c2c(C(=O)Nc3ccc(CNC(=O)OC(C)(C)C)cc3)ncn21` gave gsp agonist inactive.
`O=C(NCCc1ccccc1)[C@@H]1CC=C[C@@H]2CCN(Cc3ccc(Cl)c(Cl)c3)C(=O)[C@@H]21` gave Rango-impB inh inactive, Rango dissoc inh inactive, gsp antagonist inconclusive and S-ASM inh inactive.
Screening Cc1cc(=O)oc2c(C)c(OC3CCCCC3=O)ccc12 (stereo unspecified) returned Rango-impB inh inactive, Rango dissoc inh inactive, gsp agonist inactive, gsp antagonist inactive and S-ASM inh inactive.
`COc1cccc(CN2CCC(n3nccc3NC(=O)CCOc3ccccc3)CC2)c1O` gave Rango-impB inh inactive, Rango dissoc inh inactive, gsp agonist inactive, gsp antagonist inactive and S-ASM inh inactive.
`CC(=O)Nc1ccccc1C(=O)OCc1ccc(C(=O)c2ccccc2)cc1` gave Rango-impB inh inactive, Rango dissoc inh inactive, gsp agonist inactive, gsp antagonist 1.8µM and S-ASM inh inactive.
CC(=O)Nc1ccccc1C(=O)OCC(=O)c1ccc2ccccc2c1 was read as Rango-impB inh inactive, Rango dissoc inh inactive, gsp agonist inactive, gsp antagonist 25µM and S-ASM inh inactive.
`CC1(C)c2[nH]c3ccccc3c2C[C@H]2C(=O)N(Cc3ccccc3F)C(=O)N21` gave Rango-impB inh inconclusive, Rango dissoc inh inconclusive and S-ASM inh inactive.
Screening CC(=O)C1=C(O)C2(C)c3c(O)c(C)c(O)c(C(C)=O)c3OC2CC1=O (stereo unspecified) returned gsp agonist inactive.
`C=C(C)C(Cc1c(OC)ccc(C(=O)/C=C/c2ccc(O)cc2)c1O)OO` (stereo unspecified) gave Rango-impB inh inactive, Rango dissoc inh inactive, gsp antagonist 25µM and S-ASM inh inconclusive.
For CN1CCC(N(C)c2ncnc3ccc(Br)cc23)CC1 the results were Rango-impB inh inactive, Rango dissoc inh inactive, gsp agonist 32µM, gsp antagonist inactive and S-ASM inh inactive.
O=C1C(=O)c2cccc3cccc1c23 was read as Rango-impB inh inactive, Rango dissoc inh inactive, gsp agonist inactive, gsp antagonist inactive and S-ASM inh inactive.
`O=C1C(=O)c2ccccc2-c2ccccc21` gave Rango-impB inh inactive, Rango dissoc inh inactive, gsp antagonist 18µM and S-ASM inh inactive.
`Cc1ccc2c(C)c3ccc4ccccc4c3c[n+]2c1` gave Rango-impB inh inconclusive, Rango dissoc inh inactive, gsp agonist inconclusive, gsp antagonist 50µM and S-ASM inh inactive.
C[C@@H]1CNC(=O)c2c(C(=O)Nc3cccc(Cl)c3)ncn21 was read as gsp agonist inactive.
For C#C[C@]1(O)CC[C@H]2[C@@H]3CCC4=Cc5nc6nc7ccccc7n6cc5C[C@]4(C)[C@H]3CC[C@@]21C the results were Rango-impB inh inconclusive, Rango dissoc inh inconclusive, gsp antagonist 32µM and S-ASM inh inactive.
For C#CC1(O)CCC2C3CCC4=C/C(=N/OCC(=O)NCC(=O)NC(C(=O)O)C(C)C)CC[C@]4(C)C3CC[C@@]21C (stereo partly specified) the results were Rango-impB inh inactive, Rango dissoc inh inactive, gsp agonist inactive, gsp antagonist inactive and S-ASM inh inactive.
COC(=O)[C@H]1[C@H]2C[C@@H]3c4[nH]c5cc(OC)ccc5c4CCN3C[C@H]2C[C@@H](OC(=O)/C=C/c2cc(OC)c(OC)c(OC)c2)[C@@H]1OC was read as Rango-impB inh inconclusive, Rango dissoc inh 5.8µM, gsp antagonist inactive and S-ASM inh inactive.
O=C(c1cc([N+](=O)[O-])ccc1N1CCNCC1)N1CCOCC1 was read as Rango-impB inh inactive, Rango dissoc inh inactive, gsp agonist inactive, gsp antagonist inactive and S-ASM inh inactive.
O=C(c1cc(-c2ccc(Cl)cc2)n(-c2ccc(Cl)cc2Cl)n1)N1CCOCC1 was read as Rango-impB inh inactive, Rango dissoc inh inactive, gsp agonist inactive, gsp antagonist inactive and S-ASM inh 28µM.
Screening CC(OC(=O)COc1ccc(Nc2ccccc2)cc1)C(=O)N(C)c1ccccc1 (stereo unspecified) returned Rango-impB inh inactive, Rango dissoc inh inactive, gsp agonist inactive[15.4 µM], gsp antagonist inactive and S-ASM inh inactive.
Cc1cc2c(cc(C(=O)N3CCC(C(=O)NC4CCCC4)CC3)n2Cc2c(F)cccc2Cl)o1 was read as Rango-impB inh inactive, Rango dissoc inh inactive, gsp agonist inactive, gsp antagonist 35µM and S-ASM inh inactive.
`CCOc1ccc(S(=O)(=O)Nc2cccc(C(=O)N3CCN(c4ccccn4)CC3)c2)cc1` gave gsp agonist inactive.
For O=S(=O)(c1ccc(Cl)cc1)N1CCC(n2cnc3cc(C(F)(F)F)ccc32)CC1 the results were Rango-impB inh inactive, Rango dissoc inh inactive, gsp agonist inactive, gsp antagonist inconclusive and S-ASM inh inactive.
CN(C)CCC=C1c2ccccc2CCc2ccccc21 was read as Rango-impB inh inactive, Rango dissoc inh inactive, gsp antagonist 20µM and S-ASM inh inactive.
Screening C=CCN1C(=O)/C(=C\c2ccc(N3CCOCC3)o2)C(=O)NC1=S returned Rango-impB inh 65µM, Rango dissoc inh inactive, gsp agonist inactive, gsp antagonist inactive and S-ASM inh inactive.
Screening CN1CCc2nc(SCc3cccc(Br)c3)c(C#N)cc2C1 returned Rango-impB inh inconclusive, Rango dissoc inh 16µM, gsp agonist inactive[15.4 µM], gsp antagonist inactive and S-ASM inh inactive.
`Cc1ccc(S(=O)(=O)N(C)C[C@H]2Oc3ncc(Br)cc3C(=O)N([C@H](C)CO)C[C@@H]2C)cc1` gave gsp agonist inactive.
Screening C[C@H](CO)N1C[C@H](C)[C@@H](CN(C)Cc2ccc(-c3ccccc3)cc2)Oc2c(NC(=O)c3ccncc3)cccc2C1=O returned Rango-impB inh inactive, Rango dissoc inh inactive, gsp antagonist 32µM and S-ASM inh inactive.
C[C@@H]1CN([C@H](C)CO)C(=O)c2cc(NC(=O)Nc3ccc(C(F)(F)F)cc3)ccc2O[C@H]1CN(C)S(=O)(=O)c1cccs1 was read as Rango-impB inh inactive, Rango dissoc inh inactive, gsp antagonist inactive and S-ASM inh inconclusive.
Screening CN1C(=O)C(Cc2nc3ccccc3c(=O)n2-c2ccccc2)c2ccccc21 (stereo unspecified) returned Rango-impB inh inactive, Rango dissoc inh inactive, gsp agonist inactive, gsp antagonist 35µM and S-ASM inh inactive.
